pIC50: −log10 of the molar value. One block for each compound: values may come before it.
Molecular target: T1, OX1 (Homo sapiens, UniProt O43613)
T1 construct: expressed in transfected cells; host or cells: CHO (CHO-OX1, kept under selection antibiotic)
Assay: Orexin receptor cell-based functional assay, [Ca2+]i by FLIPR, CHO-OX1 cells
Conditions: CHO-OX1 cells, [Ca2+]i by FLIPR, antagonist dose-range 0.1 nM-10 μM, EC90 of OXA; read-out: OX1

By UniProt entry, the sequences of proteins in these tests, tags left out.
UniProt O43613, whole entry: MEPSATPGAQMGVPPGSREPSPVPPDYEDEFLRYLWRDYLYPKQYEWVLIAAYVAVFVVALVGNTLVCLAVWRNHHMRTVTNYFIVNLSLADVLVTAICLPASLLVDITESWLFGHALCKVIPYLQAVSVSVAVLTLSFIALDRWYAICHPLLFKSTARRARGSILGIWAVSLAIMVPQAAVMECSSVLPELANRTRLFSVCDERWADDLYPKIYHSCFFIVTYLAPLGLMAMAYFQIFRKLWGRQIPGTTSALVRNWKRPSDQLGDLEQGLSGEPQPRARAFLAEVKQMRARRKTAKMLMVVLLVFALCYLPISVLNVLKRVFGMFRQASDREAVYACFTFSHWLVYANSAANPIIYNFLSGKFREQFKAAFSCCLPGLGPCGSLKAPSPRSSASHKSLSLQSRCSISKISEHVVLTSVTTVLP

SMILES: Cc1ccc(-n2nccn2)c(C(=O)N2CCC(F)(F)C[C@H]2CNc2ncc(C(F)(F)F)cn2)c1 [Example A211, (S)-(4,4-Difluoro-2-(((5-(trifluoromethyl)pyrimidin-2-yl)amino)methyl)piperidin-1-yl)(5-methyl-2-(2H-1,2,3-triazol-2-yl)phenyl)methanone]
pIC50: 6.85

SMILES: Cc1ccc(-n2nccn2)c(C(=O)N2CCC[C@@H](C)[C@H]2CNc2ncc3ccc(C)cc3n2)c1 [Example A215, ((2S,3R)-3-Methyl-2-(((7-methylquinazolin-2-yl)amino)methyl)piperidin-1-yl)(5-methyl-2-(2H-1,2,3-triazol-2-yl)phenyl)methanone]
pIC50: 8.00

SMILES: C[C@@H]1CCCN(C(=O)c2cc(F)ccc2-c2ncccn2)[C@@H]1CNc1ncc(Cl)cn1 [Example A226, ((2S,3R)-2-(((5-Chloropyrimidin-2-yl)amino)methyl)-3-methylpiperidin-1-yl)(5-fluoro-2-(pyrimidin-2-yl)phenyl) methanone]
pIC50: 7.96

SMILES: C[C@@H]1CCCN(C(=O)c2c(F)cccc2-c2ncccn2)[C@@H]1CNc1ccc(C(F)(F)F)cn1 [Example A241, (2-Fluoro-6-(pyrimidin-2-yl)phenyl)((2S,3R)-3-methyl-2-(((5-(trifluoromethyl)pyridin-2-yl)amino)methyl)piperidin-1-yl)methanone]
pIC50: 8.05

SMILES: C[C@@H]1CCCN(C(=O)c2cc(F)c(F)cc2-n2nccn2)[C@@H]1CNc1ccc(Cl)cn1 [Example A246, ((2S,3R)-2-(((5-Chloropyridin-2-yl)amino)methyl)-3-methylpiperidin-1-yl)(4,5-difluoro-2-(2H-1,2,3-triazol-2-yl)phenyl)methanone]
pIC50: < 7.00

SMILES: C[C@@H]1CCCN(C(=O)c2ccc(F)cc2-n2nccn2)[C@@H]1CNc1ccc(C(F)(F)F)cn1 [Example A250, (4-Fluoro-2-(2H-1,2,3-triazol-2-yl)phenyl)((2S,3R)-3-methyl-2-(((5-(trifluoromethyl)pyridin-2-yl)amino)methyl)piperidin-1-yl)methanone]
pIC50: 7.33

SMILES: Cc1ccc(C(=O)N2CCC[C@@H](C)[C@H]2CNc2ncc(Cl)cn2)c(-n2nccn2)c1 [Example A271, ((2S,3R)-2-(((5-Chloropyrimidin-2-yl)amino)methyl)-3-methylpiperidin-1-yl)(4-methyl-2-(2H-1,2,3-triazol-2-yl)phenyl)methanone]
pIC50: 7.07

Now those with a higher pIC50, led by results:

pIC50: 8.30
SMILES: Cc1ccc(-n2nccn2)c(C(=O)N2CCC[C@@H](C)[C@H]2CNc2ncc3ccccc3n2)c1 [Example A216, ((2S,3R)-3-Methyl-2-((quinazolin-2-ylamino)methyl)piperidin-1-yl)(5-methyl-2-(2H-1,2,3-triazol-2-yl)phenyl)methanone]

pIC50: 8.30
SMILES: C[C@@H]1CCCN(C(=O)c2cccc(F)c2-n2nccn2)[C@@H]1CNc1ncc(C(F)(F)F)cn1 [Example A256, (3-Fluoro-2-(2H-1,2,3-triazol-2-yl)phenyl)((2S,3R)-3-methyl-2-(((5-(trifluoromethyl)pyrimidin-2-yl)amino)methyl)piperidin-1-yl)methanone]

pIC50: 8.40
SMILES: Cc1cccc(C(=O)N2CCC[C@@H](C)[C@H]2CNc2ccc(C(F)(F)F)cn2)c1-n1nccn1 [Example A266, ((2S,3R)-3-Methyl-2-(((5-(trifluoromethyl)pyridin-2-yl)amino)methyl)piperidin-1-yl)(3-methyl-2-(2H-1,2,3-triazol-2-yl)phenyl)methanone]

pIC50: 8.22
SMILES: Cc1cccc(C(=O)N2CCC[C@@H](C)[C@H]2CNc2ncc(C(F)(F)F)cn2)c1-n1nccn1 [Example A267, ((2S,3R)-3-Methyl-2-(((5-(trifluoromethyl)pyrimidin-2-yl)amino)methyl)piperidin-1-yl)(3-methyl-2-(2H-1,2,3-triazol-2-yl)phenyl)methanone]

pIC50: 8.52
SMILES: Cc1cccc(C(=O)N2CCC[C@@H](C)[C@H]2CNc2ncc(Cl)cn2)c1-n1nccn1 [Example A268, ((2S,3R)-2-(((5-Chloropyrimidin-2-yl)amino)methyl)-3-methylpiperidin-1-yl)(3-methyl-2-(2H-1,2,3-triazol-2-yl)phenyl)methanone]
